Key:
[1] = tested on: MDA-MB-435/LCCMDR1 multidrug-resistant melanoma cells; experiment: Cytotoxicity (SRB) assay, MDA-MB-435/LCCMDR1; format: cell-based; settings: MDR melanoma line vs sensitive parent line
[2] = tested on: T1, tubulin colchicine binding site; experiment: [3H]-colchicine competition-binding scintillation proximity assay; settings: SPA, 0.03-100 μM
T1 construct: […]

SMILES	P-gp substrate / multidrug resistance in words [1]	colchicine site binding in words [2]
COc1cc(C(=O)c2c[nH]c(-c3ccc(C)cc3)n2)cc(OC)c1OC [12da, (2-(p-tolyl)-1H-imidazol-4-yl)(3,4,5-trimethoxyphenyl)methanone]	not substrates for P-gp	
COc1ccc(-c2nc(C(=O)c3ccc(F)cc3)c[nH]2)cc1 [12cb, (4-fluorophenyl)(2-(4-methoxyphenyl)-1H-imidazol-4-yl)methanone]	not substrates for P-gp	competitively bound to tubulin colchicine binding site

From patent US11465987B2, “Compounds for treatment of cancer” (ONCTERNAL THERAPEUTICS, INC., priority 2012, dated 2022)
